# Ab-14 heavy chain CDR variants: yeast mating affinities

The measurements come from Engelhart et al. 2022 (doi:10.1038/s41597-022-01779-4) through the FLAb antibody collection.

The target is the same throughout: PDVDLGDISGINAS, from the HR2 region of SARS-CoV-2 spike.

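The parent was found by panning a naive human phage display library on the peptide. In library AAYL49, one, two or three CDR residues were substituted; doubles and triples were drawn at random. AlphaSeq pools MATa yeast showing the antibodies with MATalpha yeast showing the peptide. Mating (16 h, 30 °C) was followed by selection of diploids and sequencing of their barcodes. Each replicate has its own calibration line, from reference interactions of the BCL2 family. There are three technical replicates.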

Parent: Ab-14, a human scFv built as VH, a 15-residue (Gly4Ser)3 linker, VL. Only the CDRs of the heavy chain vary.
VH: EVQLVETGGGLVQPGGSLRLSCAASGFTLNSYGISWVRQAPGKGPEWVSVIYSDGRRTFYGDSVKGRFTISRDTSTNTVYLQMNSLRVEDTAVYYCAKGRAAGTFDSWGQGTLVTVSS
VL: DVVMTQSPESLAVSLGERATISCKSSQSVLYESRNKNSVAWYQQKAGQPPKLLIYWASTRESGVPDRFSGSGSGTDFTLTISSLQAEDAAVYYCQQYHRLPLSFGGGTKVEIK

Variants are written as CDR1, CDR2 and CDR3 of the heavy chain (limits as in the source). Parent: GFTLNSYGIS, VIYSDGRRTFYGDSVK, GRAAGTFDS. Every variant below is changed at D54 of the VH (sequential numbering). Values are apparent Kd, the geometric mean of the replicates that gave a signal; lower means stronger binding. "nd" means that the variant was in the library but no mating with the target was seen in any replicate; the authors take this as a sign of poor binding, and no number exists. Three control strains display no target. For library AAYL49, 15% of the pairings with them gave a signal, with a median of 11 µM and one signal in twenty below 680 nM, so weak values seen in few replicates may be background. The control count says in how many pairings with the empty strains this scFv gave a signal. Parent in this assay: reference entry 4.4 nM, copy in this library 13 µM (one replicate of three).

CDR-H1,CDR-H2,CDR-H3,Kd,replicates with signal,signal with controls
YFTLNSYHIS,VIYSAGRRTFYGDSVK,GRAAGTFDS,24 µM,2/3,2/9
GFTLNSYGIS,VIYSPTRPTFYGDSVK,GRAAGTFDS,17 µM,3/3,3/9
GFTLWSYGIS,VIYSNGRRTFRGDSVK,GRAAGTFDS,nd,0/3,2/9
GFTGNSYGIS,VIYSPGRRTFYGDSVK,GRATGTFDS,nd,0/3,0/9
GFTLNSYGIS,VIYSGGRRTFYGPSVH,GRAAGTFDS,nd,0/3,2/9
GFTLNSYGIS,VIYSRGRRTFYGDSVK,GRAAPTSDS,nd,0/3,0/9
GFTLNSFGIS,VIYSRGGRTFYGDSVK,GRAAGTFDS,nd,0/3,0/9
GFTLNSYGIS,WILSVGRRTFYGDSVK,GRAAGTFDS,17 µM,2/3,6/9
GFTLNSYHIS,VIYSFGRRTFYGDSVK,GRAAGTFVS,15 µM,1/3,4/9
GFTLNSYGIS,VIYSLGRRTFYGDSVK,GRAAGLHDS,4.1 µM,2/3,2/9
GFTLNSYGIS,VIYSMGRRTFYGDSVK,GRRAGTQDS,5.6 µM,1/3,2/9
GFTHNSYGIS,VIYSYGRRTFYGDSVK,GRAAGTFDK,nd,0/3,0/9
GFTLNSPGIS,VIYSHGRRTFAGDSVK,GRAAGTFDS,nd,0/3,0/9
GFPLNSYGIS,VIYSQGRRTFYGDSVK,GRAAGTFDS,70 µM,1/3,1/9
GFTLNSYGIS,VIYSKGRRTFYGDSMK,GRAVGTFDS,nd,0/3,1/9
GFTLNSYGIS,VIYSRGRRRFYGDSVK,GRAAGTFDI,nd,0/3,3/9
GFTLNSYGIS,VIYSYGRRTFYGDSMK,GRKAGTFDS,nd,0/3,0/9
GFTLNSRGIS,VIYSYGRRTFYGDSVK,GRAAGTFMS,nd,0/3,0/9
SFTLNSYGIS,VIPSVGRRTFYGDSVK,GRAAGTFDS,nd,0/3,1/9
GFCLNSYGIS,VIYSIGRRTFYGDSVK,GRAAGTFDA,36 µM,1/3,1/9
GFTLNSYGIS,VIYSWGRRTFYGDSVK,GFAAGTFDP,nd,0/3,0/9
GFTLNSSGIS,VIYMWGRRTFYGDSVK,GRAAGTFDS,nd,0/3,1/9
GFTENSYGIS,VIYSIGDRTFYGDSVK,GRAAGTFDS,10 µM,2/3,4/9
GFTLNSYGIS,VIYSSGRRTFYGDVVK,GRAMGTFDS,nd,0/3,0/9
GFTLNSYGIS,VIYSSGRRTFYGDSVD,GRAAGTFDS,240 nM,3/3,0/9
GNTLNSYGIS,VIYSGGRRTFYGDSVK,GRAAGTFVS,nd,0/3,0/9
GFTLNSYGIS,VIYSSGRRTVYGDSVK,GMAAGTFDS,nd,0/3,0/9
GFTLNPYGIS,VIYSCGRRTFYGDSVK,GRAAGTFDE,2.8 µM,1/3,0/9
GFTLNSYGIS,VIYSNGRRTFYGDSVK,GRAAGTFDS,3.8 µM,1/3,1/9
GFTLNSYGIS,VWYSTGMRTFYGDSVK,GRAAGTFDS,nd,0/3,1/9
GQTLNSYGIS,VIYSIGRRTFYGDSVK,GRAAGTMDS,nd,0/3,2/9
GFTLNSYGIS,VIYSHGDRTIYGDSVK,GRAAGTFDS,nd,0/3,0/9
GFTLNSYGIS,VIYSRGRRTFYGDRVK,GRAAGTFDS,nd,0/3,1/9
GFTLNSYGIS,VIYSCGRRTFYGDSVK,GRAIDTFDS,81 µM,2/3,2/9
GFTLNSYGIS,VNYSQGRRTFYGDWVK,GRAAGTFDS,nd,0/3,0/9
GFTLNSYGIS,VIYSEGRRTFYGDSVK,GRAAGKFDS,21 µM,1/3,1/9
GFTLNSYGIS,VIYSKGRRTFYGDSAK,GRAAGTFDS,nd,0/3,0/9
GFTLNSYGIS,VIYSPGRRTLYGDSVK,GMAAGTFDS,nd,0/3,0/9
GFTLLSYGIS,VIYSEGRRTFYGDSVK,GRAAGTFDS,nd,0/3,0/9
GFTLNSYGIS,VIYSTGWRTFYGDSVK,GRAAGTFDR,nd,0/3,1/9
GFTLNSYGIS,VIYSEGRRTFYGDSVK,GRAAGTFDS,nd,0/3,1/9
GFNLNSYGIS,VIYSYGRETFYGDSVK,GRAAGTFDS,nd,0/3,0/9
GFTLNSYGIS,VIYSTGRRTFNGDSVK,GRAAGTFES,nd,0/3,3/9
GYTLNSYGYS,VIYSFGRRTFYGDSVK,GRAAGTFDS,nd,0/3,0/9
GFTLNSWGIS,VIFSMGRRTFYGDSVK,GRAAGTFDS,nd,0/3,1/9
GFTLNSYGIS,VIYSGGRRTFYGDSVK,PRAAGTFDS,nd,0/3,0/9
GFTDNSYIIS,VIYSQGRRTFYGDSVK,GRAAGTFDS,9.2 µM,1/3,0/9
GFTLNSYGIS,VIYSIGRRTFYGDSVK,GRAAGTFDS,nd,0/3,1/9
GFTLNSYGIS,VVYKGGRRTFYGDSVK,GRAAGTFDS,nd,0/3,0/9
GFTLCSYGIS,VIYSTGRRTFYGDSVK,GRCAGTFDS,nd,0/3,0/9
GFTLNSYGIS,VIYSYGRRTFYGDSVK,GRAAGFQDS,61 µM,3/3,4/9
GFTLNSYGIS,VIYSMGRRTFYGDSVK,MRAAGTFDW,nd,0/3,1/9
GFTLNSYGIS,VIYSANRRTFGGDSVK,GRAAGTFDS,410 nM,3/3,2/9

The first 7 variants above that were never detected:

| CDR-H1 | CDR-H2 | CDR-H3 | Kd | replicates with signal | signal with controls |
|---|---|---|---|---|---|
| GFTLWSYGIS | VIYSNGRRTFRGDSVK | GRAAGTFDS | nd | 0/3 | 2/9 |
| GFTGNSYGIS | VIYSPGRRTFYGDSVK | GRATGTFDS | nd | 0/3 | 0/9 |
| GFTLNSYGIS | VIYSGGRRTFYGPSVH | GRAAGTFDS | nd | 0/3 | 2/9 |
| GFTLNSYGIS | VIYSRGRRTFYGDSVK | GRAAPTSDS | nd | 0/3 | 0/9 |
| GFTLNSFGIS | VIYSRGGRTFYGDSVK | GRAAGTFDS | nd | 0/3 | 0/9 |
| GFTHNSYGIS | VIYSYGRRTFYGDSVK | GRAAGTFDK | nd | 0/3 | 0/9 |
| GFTLNSPGIS | VIYSHGRRTFAGDSVK | GRAAGTFDS | nd | 0/3 | 0/9 |